Test results: patent US5084142A, “Separation of tertiary butyl alcohol from water by azeotropic or extractive distillation” (priority 1991, dated 1992)

Test: Extractive agents evaluated in vapor-liquid equilibrium still (separating water from t-butanol)
Type: physicochemical
Settings: extractive agent, water as overhead

| Compound | Relative Volatility |
| --- | --- |
| CCC(O)CO (stereo not shown) [1,2-Butanediol] | 1.30 |
| CCCCCCCCCC(C)=O [2-Undecanone] | 1.33 |
| CCCCCOC(=O)CC [Amyl propionate] | 1.41 |
| CCOC(=O)c1ccccc1O [Ethyl salicylate] | 1.32 |
| CCCCOCCO [Ethylene glycol butyl ether] | 1.21 |
| CCCCCCCCCCCO [Undecyl alcohol] | 1.25 |

Test: Azeotropic agents evaluated in vapor-liquid equilibrium still (separating water from t-butanol)
Type: physicochemical
Settings: azeotropic agent, water as overhead

| Compound | Relative Volatility |
| --- | --- |
| CCC(C)C(C)=O (stereo not shown) [3-Methyl-2-pentanone] | 1.55 |
